Data: US20240247031A1, “COMPOSITION FOR TREATING CANCER CONTAINING TELOMERASE-TARGETING GNRH ANTAGONIST-DERIVED PEPTIDE HS1002” (Research & Business Foundation Sungkyunkwan University, priority 2023, published 2024)

Experiments:
MC38 tumor = experiment: MC38 syngeneic mouse tumor model (FIG. 19); type: in vivo; conditions: 1 mg/kg s.c. every day
Procedure: All mice were purchased from Central Lab Animal Inc. ([…]). They were raised in a 12 h environmental light/dark cycle with controlled temperature (22±2° C.) conditions. The experimental protocol was approved by the Sungkyunkwan University Institutional Animal Care and Use Committee (SKKUIACUC2021-06-27-1, SKKUIACUC2023-01-07-1). For the establishment of tumors, LNCaP (1×10^7), MC38 (2×10^5), and 4T1 (1×10^6) suspended in serum-free media containing 50% Matrigel was subcutaneously administered in the right flank of mice, respectively. The tumor volumes (V) were calculated using a caliper and the standard equation: V (mm^3)=0.52 (ab^2) (a=length, b=width). Once the tumor reached 100-200 mm^3, the mice were randomly divided into different groups and subcutaneously injected with a vehicle or each peptide every day.
The sequences of the TERT peptide are highly conserved in human and mouse, indicating its potential translatability to mouse cancer. […] Hot tumors are generally more responsive to immunotherapy. In contrast, ‘Cold’ tumors such as the 4T1 tumor model lack infiltrating T cells and often have a low tumor mutational burden. Without a pre-existing adaptive immune response, cold tumors are insensitive to immunotherapy. […]

A549 = experiment: MTT cytotoxicity on various cancer cells (Table 1); type: cell-based; conditions: human, 48 h
Procedure: (§1) To evaluate anticancer activities of the produced peptides on various types of cancer cells, MTT analysis was performed. Human prostate cancer cell lines (LNCaP, PC3, and DU145), human breast cancer cell lines (MDA-MB-231 and MCF-7), lung cancer cell line (A549), and ovarian cancer cell line (SKOV3) were cultured in RPMI media supplemented with 1% penicillin/streptomycin and 1% fetal bovine serum (all from Life Technologies, Grand Island, NY). The cells were seeded in 96-well plates containing 100 μL of growth media for 24 h. The media were removed, and then 100 μL of the peptide (solvent DPBS) at each concentration was added to each well and incubated at 37° C. for 48 h. After incubation for 48 h, 100 μL of MTT reagent was added to each well. The cells were incubated at 37° C. for 4 h, and then the supernatant was removed. Formazan crystals were dissolved in 100 μL of DMSO with gentle stirring at 37° C. for 10 min. The absorbance per well was measured at 540 nm using a VERSA max microplate reader (Molecular Devices Corp.).

PC3 = experiment: MTT cytotoxicity on various cancer cells (Table 1); type: cell-based; conditions: human, 48 h
Procedure: as §1

SKOV3 = experiment: MTT cytotoxicity on various cancer cells (Table 1); type: cell-based; conditions: human, 48 h
Procedure: as §1

DU145 = experiment: MTT cytotoxicity on various cancer cells (Table 1); type: cell-based; conditions: human, 48 h
Procedure: as §1

LNCaP = type: cell-based; conditions: human, 48 h
Procedure: as §1

MCF-7 = type: cell-based; conditions: human, 48 h
Procedure: as §1

SMILES: CC[C@H](C)[C@H](NC(=O)[C@H](Cc1ccccc1)NC(=O)[C@H](CCCNC(=N)N)NC(=O)[C@H](CC(C)C)NC(=O)[C@H](CCCNC(=N)N)NC(=O)[C@H](CO)NC(=O)[C@@H](NC(=O)[C@H](CC(C)C)NC(=O)[C@H](CC(C)C)NC(=O)[C@H](C)NC(=O)[C@@H]1CCCN1C(=O)[C@H](CCCNC(=N)N)NC(=O)[C@H](C)NC(=O)[C@@H](N)CCC(=O)O)[C@@H](C)O)C(=O)N1CCC[C@H]1C(=O)N[C@@H](CCCCN)C(=O)O [GV1001, reference compound]
- tumor volume (MC38 tumor): diminished
- tumor weight (MC38 tumor): diminished
- Cytotoxicity (IC50) A549 (A549): 3.16 ± 0.30 µg/mL
- Cytotoxicity (IC50) PC3 (PC3): 9.05 ± 0.62 µg/mL
- Cytotoxicity (IC50) SKOV3 (SKOV3): 5.16 ± 0.62 µg/mL
- Cytotoxicity (IC50) DU145 (DU145): 7.59 ± 0.46 µg/mL
- Cytotoxicity (IC50) LNCaP (LNCaP): 7.34 ± 0.31 µg/mL
- Cytotoxicity (IC50) MCF-7 (MCF-7): 55.56 ± 2.18 µg/mL
